Reference: ChEMBL document CHEMBL3232856, “Endomorphin analogues with mixed μ-opioid (MOP) receptor agonism/δ-opioid (DOP) receptor antagonism and lacking β-arrestin2 recruitment activity” (Bioorg Med Chem, 2014)

Sequences of proteins named here, by UniProt entry; tags and fusion partners are left off.
UniProt P35372, whole entry: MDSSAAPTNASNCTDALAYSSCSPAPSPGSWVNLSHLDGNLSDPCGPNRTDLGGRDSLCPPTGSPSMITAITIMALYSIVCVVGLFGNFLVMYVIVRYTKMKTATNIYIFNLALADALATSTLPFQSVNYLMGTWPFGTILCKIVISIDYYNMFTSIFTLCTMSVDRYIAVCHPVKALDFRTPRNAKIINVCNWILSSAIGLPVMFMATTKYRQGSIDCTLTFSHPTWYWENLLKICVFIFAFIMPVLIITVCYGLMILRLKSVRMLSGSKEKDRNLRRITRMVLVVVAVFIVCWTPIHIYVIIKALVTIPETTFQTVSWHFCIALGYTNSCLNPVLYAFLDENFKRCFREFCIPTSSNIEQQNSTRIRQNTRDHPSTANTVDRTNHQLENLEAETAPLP

Molecular target: Mu-type opioid receptor (Homo sapiens, UniProt P35372)
Test: Agonist activity at GFP-fused mu opioid receptor (unknown origin) expressed in HEK293 cells assessed as recruitment of beta-arrestin-2 after 10 mins by BRET assay
Type: cell-based

CC(C)C[C@@H](NC(=O)[C@H](Cc1ccccc1)NC(=O)CNC(=O)[C@@H](C)NC(=O)[C@@H](N)Cc1ccc(O)cc1)C(=O)O [DADLE]
EC50: 1300 nM
